Laboratory results: PMC9932578 (Clinical Cancer Research, 2022)

Q: Which “DLT: sialadenitis” value (75 mg QD MDS cohort, n = 1/16) does the source give for `CCNC(=O)C[C@@H]1N=C(c2ccc(Cl)cc2)c2cc(OC)ccc2-n2c(C)nnc21` [molibresib] here?
A: 6%

Q: What about the “DLT: decrease in ejection fraction” value (120 mg QD AML cohort, n = 1/6) of the same molecule?
A: 17%

Q: What about the “patients who experienced a DLT” value (all cohorts) of the same molecule?
A: 4 patients
